Literature values as cited in US12628856B2, “Nutritional composition having lipophilic compounds with improved solubility and bioavailability” (Abbott Laboratories, priority 2013, dated 2026).

Conditions: Kd Source: Published; read-out: Lutein Kd; cited from earlier work

## HSA: reference protein with published lutein Kd [reference compound]
  Kd: 1.69 µM
